The text below walks through data of PubChem BioAssay AID2052 (NMMLSC, 2009).

Each structure is given as a SMILES string. The list shows a part of the results, in another mix than the full data. The source made the active and inactive calls.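 How the source made its calls: active means response, share of CD8 T cells binding vesicles, and their 90th percentile fluorescence all below set limits (cut at about 80% in these data, passing the limit was not always enough); inactive means the rest, inconclusive results apart.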

This test in a line: modulators of CD8 T cell-vesicle binding, primary screen, mouse 2C CD8+ T cells, flow cytometry (AID 2052).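 Further: values below 100% mean blocked vesicle binding to the CD8+ T cells.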 The note with it: 2C CD8+ T cell-vesicle binding, at 7 µM, hits give low values. The method, boiled down:
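Assay system – 2C mouse CD8+ T cells · Also added – QL9-loaded Drosophila micro-vesicles · Timing – Cell–vesicle co-incubation 1.5 h at 37 °C, staining 20 min on ice · Signal – flow cytometry of vesicle-bound cells · Measure – percent CD8+ FL2 mean versus row control · Controls – Peptide-free naked vesicles (low) and QL9 vesicles with 0.7% DMSO vehicle (high)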
In the case of `CN(C)C(=O)OCCc1n(C)cc[n+]1C`, the response (vesicle binding) was inactive: 201%. Regarding `CC(C)=N/N=C(\N)N[N+](=O)[O-]`, the response (vesicle binding) was inactive: 381%. The value for `CN(C)C(=O)c1c([N+](=O)[O-])cc([N+](=O)[O-])cc1[N+](=O)[O-]` was inactive: 360%.

As to `CC1CCN(C(=O)Oc2c(Cl)cc(Cl)c3cccnc23)CC1`, the response (vesicle binding) is inactive: 194%.

Turning to `COc1ccccc1OP(C)(=O)Nc1ccccc1Br` (stereo unspecified), the response (vesicle binding) is inactive: 1020%.

With `Nc1ccc([As](=O)(O)c2ccc(N)cc2)cc1`, the response (vesicle binding) is inactive: 366%. The value for `CC(C)(C)c1ccc(OP(C)(=O)O)cc1` was inactive: 401%; that for `CP(=O)(Nc1ccc(Cl)cc1)Oc1ccc(F)cc1` (stereo unspecified) was inactive: 392%; that for `CCN(/C(=N/P(=O)(N1CCOCC1)N1CCOCC1)N1CCOCC1)c1ccc(OC)cc1` was inactive: 419%. The value for `O=C(OCCCN1CCCC1)C(O)(c1ccccc1)C1CCCCC1` (stereo unspecified) was inactive: 254%; that for `CC(=O)N1C2C3N(C(C)=O)C1C1N(C(C)=O)C(C(N1C(C)=O)N3C(C)=O)N2C(C)=O` was inactive: 345%; that for `O=[N+]([O-])c1cccc2n[nH]nc12` was inactive: 397%.

As to `COc1ccccc1OP(C)(=O)Nc1c(C)n(C)n(-c2ccccc2)c1=O` (stereo unspecified), the response (vesicle binding) is inactive: 309%.

With `CCc1ccc(OP(C)(=O)Nc2cccnc2)cc1` (stereo unspecified), the response (vesicle binding) is inactive: 267%. The value for `O=[N+]([O-])c1cc([N+](=O)[O-])c(CCNc2ccccc2)c([N+](=O)[O-])c1` was inactive: 373%; that for `CCc1nc2c(n1)c1c(non1O)c1c2no[n+]1[O-]` was inactive: 248%; that for `CP(=O)(Oc1ccccc1)N1CCOC1=O` (stereo unspecified) was inactive: 122%. Turning to `Cc1ccc(NP(=O)(Oc2ccccc2)Oc2ccccc2)nc1`, the response (vesicle binding) was inactive: 259%. The value for `COc1ccc(OP(C)(=O)Nc2ccc(Br)cc2)cc1` (stereo unspecified) was inactive: 201%. The value for `COc1ccc(C2=NCC(CBr)S2)cc1` (stereo unspecified) was inactive: 485%; that for `CCN(CC)CC(O)COC(=O)C(O)(c1ccccc1)C1CCCCC1` (stereo unspecified) was inactive: 542%. As to `O=[N+]([O-])c1cccc(NC2=NCC(CBr)S2)c1` (stereo unspecified), the response (vesicle binding) is inactive: 859%.

Turning to `O=C(O)CNc1ccc([As](=O)(O)O)cc1`, the response (vesicle binding) is inactive: 168%.

As to `CC(C)(C)C(=O)NC(Sc1ccncn1)C(Cl)(Cl)Cl` (stereo unspecified), the response (vesicle binding) was inactive: 449%. The value for `O=[N+]([O-])c1ncn(CCn2ncnc2[N+](=O)[O-])n1` was inactive: 308%; that for `O=C(Nc1cc([As](=O)(O)O)ccc1O)c1ccccc1` was inactive: 322%. The value for `CCOC(=O)c1ccc(NP(C)(=O)Oc2ccc(Cl)cc2)cc1` (stereo unspecified) was inactive: 263%. The value for `CP(=O)(OC12CC3CC(CC(C3)C1)C2)OC12CC3CC(CC(C3)C1)C2` was inactive: 214%. Take `Nc1ccc2c(ccc3cccnc32)n1.O=[N+]([O-])c1cc([N+](=O)[O-])c(O)c([N+](=O)[O-])c1`: the response (vesicle binding) was inactive: 297%.

With `CCN(N=Nc1nonc1N)c1nonc1N`, the response (vesicle binding) was inactive: 303%. The value for `CP(=O)(Nc1ccc(Cl)cc1Cl)Oc1ccccc1` (stereo unspecified) was inactive: 216%; that for `CP(=O)(OCCOc1ccccc1)OCCOc1ccccc1` was inactive: 284%.

On to `Nc1cccc2ccc([As](=O)(O)O)cc12`, for which the response (vesicle binding) was inactive: 129%. The value for `Cc1nc2ccc3ccccc3c2o1.O=[N+]([O-])c1cc([N+](=O)[O-])c(O)c([N+](=O)[O-])c1` was inactive: 266%; that for `O=[N+]([O-])c1cc([N+](=O)[O-])c(CCN2CCOCC2)c([N+](=O)[O-])c1` was inactive: 196%; that for `COc1ccccc1OP(C)(=O)Nc1ccc(C)c(C)c1` (stereo unspecified) was inactive: 135%. `CN(C(=O)Cc1ccc(Cl)c(Cl)c1)[C@H]1CCCC[C@@H]1N1CCCC1`: the response (vesicle binding) is inactive: 315%. The value for `Cc1ccc(NP(=O)(Oc2ccccc2F)Oc2ccccc2F)nc1` was inactive: 186%; that for `Cc1cc(SC(NC(=O)c2ccc(F)cc2)C(Cl)(Cl)Cl)ncn1` (stereo unspecified) was inactive: 86%. The value for `CCOP(=O)(Nc1ccccc1)OCC` was inactive: 520%; that for `COc1ccc(OP(C)(=O)Nc2ccccc2Br)cc1` (stereo unspecified) was inactive: 208%; that for `CC(=O)Nc1ccc([As](=O)(O)O)cc1` was inactive: 177%. The value for `O=C(O)c1ccccc1[As](=O)(O)O` was inactive: 56.7%; that for `O=P(Nc1nc2ccc(Cl)cc2s1)(c1ccccc1)c1ccccc1` was inactive: 479%. Regarding `Cc1cc(C)cc(OP(C)(=O)Nc2cccc(C(F)(F)F)c2)c1` (stereo unspecified), the response (vesicle binding) was inactive: 178%.

`COc1ccccc1OP(C)(=O)Nc1ccc(C)cc1C` (stereo unspecified): the response (vesicle binding) is inactive: 405%.

For the compound `CP(=O)(Nc1ccccn1)Oc1ccccc1` (stereo unspecified), the response (vesicle binding) was inactive: 240%.

On to `CCc1ccc(OP(C)(=O)O)cc1`, for which the response (vesicle binding) was inactive: 305%.

`Nc1cc(N)c2nonc2c1[N+](=O)[O-]`: the response (vesicle binding) was inactive: 637%. The value for `Cc1c(NP(C)(=O)Oc2ccc(C(C)C)cc2)c(=O)n(-c2ccccc2)n1C` (stereo unspecified) was inactive: 284%; that for `O=[N+]([O-])c1cc([N+](=O)[O-])c(Nc2ccccn2)c([N+](=O)[O-])c1` was inactive: 349%; that for `CC(C)CC(=O)NC(Sc1ccc(Cl)cc1)C(Cl)(Cl)Cl` (stereo unspecified) was inactive: 631%. The value for `O=C(NC(Sc1ccncn1)C(Cl)(Cl)Cl)c1ccccc1` (stereo unspecified) was inactive: 152%. The value for `Cc1c2non([O-])c-2c(C)[n+](=O)[n+]1[O-]` was inactive: 499%; that for `Oc1ccccc1CNc1ccccn1` was inactive: 891%. With `Cc1ccc(OP(=O)(Nc2nccs2)Oc2ccc(C)cc2)cc1`, the response (vesicle binding) is inactive: 602%. With `COc1ccccc1OP(=O)(Nc1ccc(C)cn1)Oc1ccccc1OC`, the response (vesicle binding) is inactive: 326%.

For `COc1ccc(OP(C)(=O)Nc2ccccn2)cc1` (stereo unspecified), the response (vesicle binding) was inactive: 302%. The value for `CN1CCCC(OC(=O)C(c2ccccc2)c2ccccc2)C1` (stereo unspecified) was inactive: 239%; that for `CN(C)CCOC(=O)C(O)(c1ccccc1)C1CCCC1` (stereo unspecified) was inactive: 193%; that for `Clc1ccc(Cl)c(NC2=NCC(CBr)S2)c1` (stereo unspecified) was inactive: 142%.

As for `NC(=O)c1cc([N+](=O)[O-])cc([N+](=O)[O-])c1N`, the response (vesicle binding) is inactive: 879%. The value for `Cc1ccc(N/C(=N/P(=O)(N2CCOCC2)N2CCOCC2)N2CCOCC2)cc1` was inactive: 230%; that for `CN(C(=O)Cc1ccc(Cl)c(Cl)c1)[C@H]1CCCC[C@H]1N1CCCC1` was inactive: 625%; that for `COc1ccccc1OP(C)(=O)Nc1ccc(Br)cc1` (stereo unspecified) was inactive: 364%. The value for `CC(=O)Nc1ccc(Oc2c([N+](=O)[O-])cc([N+](=O)[O-])cc2[N+](=O)[O-])cc1` was inactive: 306%.
